Data on one compound can be found in US7012090B1, “Pyranoindoles for treating glaucoma” (Alcon, Inc., priority 2000, dated 2006).

Chains of the proteins cited; added tags and fusions are not shown.
UniProt P14842, whole entry: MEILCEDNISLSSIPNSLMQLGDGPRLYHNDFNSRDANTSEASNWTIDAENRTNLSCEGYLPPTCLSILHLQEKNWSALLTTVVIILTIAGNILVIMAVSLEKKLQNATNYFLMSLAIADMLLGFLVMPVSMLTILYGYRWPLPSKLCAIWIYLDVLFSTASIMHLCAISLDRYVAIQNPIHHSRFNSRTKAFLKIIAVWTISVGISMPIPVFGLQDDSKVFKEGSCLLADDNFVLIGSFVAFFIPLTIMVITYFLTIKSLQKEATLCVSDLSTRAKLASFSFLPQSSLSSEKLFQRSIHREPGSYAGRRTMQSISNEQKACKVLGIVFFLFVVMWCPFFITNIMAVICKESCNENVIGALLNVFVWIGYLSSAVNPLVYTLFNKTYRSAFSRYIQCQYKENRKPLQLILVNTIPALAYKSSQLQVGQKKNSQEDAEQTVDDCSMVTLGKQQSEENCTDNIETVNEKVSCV

The experiment addresses T1, 5-HT2 receptor (Rattus norvegicus, UniProt P14842).
T1 construct: [^3H]myo-inositol-labeled A7r5 rat vascular smooth muscle cells; endogenous in cells; host or cells: A7r5 rat vascular smooth muscle cells
Briefly: 5-HT2 Functional Assay: Phosphoinositide (PI) Turnover Assay. In kind it is cell-based. The note with it: A7r5 cells, relative to 5-HT set at 100%. The method, then:
5-HT2 Functional Assay: Phosphoinositide (PI) Turnover Assay
The relative agonist activity of serotonergic compounds at the 5-HT2 receptor can be determined in vitro using the ability of the compounds to stimulate the production of [^3H]inositol phosphates in [^3H]myo-inositol-labeled A7r5 rat vascular smooth muscle cells by their ability to activate the enzyme phospholipase C. These cells are grown in culture plates, maintained in a humidified atmosphere of 5% CO2 and 95% air and fed semi-weekly with Dulbecco's modified Eagle medium (DMEM) containing 4.5 g/l glucose and supplemented with 2 mM glutamine, 10 μg/ml gentamicin, and 10% fetal bovine serum. For the purpose of conducting the phosphoinositide (PI) turnover experiments, the A7r5 cells are cultured in 24-well plates as previously [J. Pharmacol. Expt. Ther., 286, 411 (1998)]. Confluent cells are exposed for 24-30 hrs to 1.5 μCi [^3H]-myo-inositol (18.3 Ci/mmol) in 0.5 ml of serum-free medium. […] The eluate (4 ml) is collected, mixed with 15 ml scintillation fluid, and the total [^3H]-IPs determined by scintillation counting on a beta-counter. Concentration-response data are analyzed by the sigmoidal fit function of the Origin Scientific Graphics software (Microcal Software, Northampton, Mass.) to determine agonist potency (EC50 value) and efficacy (Emax). […]

For `COc1cc(C[C@@H](C)N)c(OC)cc1I` [(R)-DOI, reference compound], the “Efficacy (Emax, %)” value is listed as 82%.
